The values below come from paper PMC6748671, “Distribution of Small Molecular Weight Drugs into the Porcine Lens: Studies on Imaging Mass Spectrometry, Partition Coefficients, and Implications in Ocular Pharmacokinetics” (Molecular Pharmaceutics, 2019).

The structures appear in SMILES notation.

For this data set the following is noted: porcine lens, 4 h in vitro incubation.

Regarding `CCN(CC)c1ccc2c(-c3ccccc3C(=O)O)c3ccc(=[N+](CC)CC)cc-3oc2c1` [Rhodamine-B], the “distribution pattern of dye in the lens (fluorescence microscopy)” value is reported as “distributed slightly deeper into the lens cortex”.
